{"source": "paper PMC3694611", "about": "(Journal of natural products, 2012)", "origin": "cited, not measured here", "target": "T1, cathepsin E (Homo sapiens, UniProt P14091)", "T1 sequence (P14091 54-396)": "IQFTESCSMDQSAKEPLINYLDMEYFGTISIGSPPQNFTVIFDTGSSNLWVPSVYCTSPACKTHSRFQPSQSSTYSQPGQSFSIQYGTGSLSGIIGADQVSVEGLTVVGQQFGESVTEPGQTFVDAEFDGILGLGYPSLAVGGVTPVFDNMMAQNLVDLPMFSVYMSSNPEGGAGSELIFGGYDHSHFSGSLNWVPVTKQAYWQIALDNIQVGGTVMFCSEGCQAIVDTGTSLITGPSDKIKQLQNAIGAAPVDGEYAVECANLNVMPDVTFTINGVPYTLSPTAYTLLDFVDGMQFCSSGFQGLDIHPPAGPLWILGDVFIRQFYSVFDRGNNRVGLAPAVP", "details": "in words; ref [1c]", "data": [{"substance": "grassystatin A", "values": [{"measurement": "selective inhibition of the protease cathepsin E", "result": "selective inhibition"}]}]}
